The values below are quoted from earlier work in US12485106B2, “Methods of treating fibrotic liver diseases or conditions with indeglitazar” (PLEIOGENIX INC., priority 2023, dated 2025).

For this series the following is noted: clinical studies, patients; cited from earlier work.

Take insulin: the incidence of edema is on record as 7.0%.
